The subject of this data set is NADPH. In words: purified protein, by the assay type. To be noted: other: cofactor, menthone as substrate, reductase expressed from pSBET, pH 7, 31° C., means±standard error.

As to “menthone: (3R)-(−)-menthol reductase (SEQ ID NO:2) (Mentha x piperita)”, the Km is 0.12 ± 0.04 µM.

For the origin of these results see patent US8426684B2 (Washington State University Research Foundation, priority 2004, dated 2013).
